Earlier results in patent publication US9255295B2, “Method for evaluating the sensitizing potential of a test compound” (IMMUNOSEARCH, priority 2010, dated 2016).

Conditions: official classification: non-sensitizer, irritant, or sensitizing Extreme/Strong/Moderate/Weak; cited from earlier work

O=[N+]([O-])c1cc([N+](=O)[O-])c(S(=O)(=O)O)c([N+](=O)[O-])c1
Class: S
